From publication PMC13191471, “RNF126 writes a non-canonical ubiquitin code on midnolin to tune protein stability” (Acta Biochimica et Biophysica Sinica, 2026)

Target: T1, MIDN-His6, recombinant (human, UniProt Q504T8 1-468)
T1 construct: Midnolin (MIDN), cDNA amplified from HEK293T cells (full-length or truncated cDNA was cloned; this construct is named without limits); also called Midnolin; source: E. coli BL21 (DE3), purified (Ni-NTA agarose); not shown: His6, C-terminal, kept
T1 sequence (looked up): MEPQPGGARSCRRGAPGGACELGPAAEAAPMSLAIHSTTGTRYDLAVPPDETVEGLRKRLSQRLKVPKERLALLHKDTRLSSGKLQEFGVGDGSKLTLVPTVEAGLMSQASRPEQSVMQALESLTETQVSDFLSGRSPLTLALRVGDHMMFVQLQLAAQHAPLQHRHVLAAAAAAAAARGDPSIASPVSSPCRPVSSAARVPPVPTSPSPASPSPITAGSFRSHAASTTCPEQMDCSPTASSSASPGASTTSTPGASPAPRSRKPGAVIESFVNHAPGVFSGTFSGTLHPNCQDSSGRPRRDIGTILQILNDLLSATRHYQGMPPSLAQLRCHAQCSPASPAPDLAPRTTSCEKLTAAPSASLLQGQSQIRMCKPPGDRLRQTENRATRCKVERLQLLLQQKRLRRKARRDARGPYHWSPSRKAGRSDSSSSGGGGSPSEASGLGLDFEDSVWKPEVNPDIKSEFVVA
Experiment: pull-down; GST pull-down: 5 ug His6-tagged and 5 ug GST-tagged protein, glutathione Sepharose 4B, overnight at 4 C, 20 mM Tris-HCl pH 8.0, 100 mM NaCl, 5 mM MgCl2, 1 mM EDTA, 0.5% NP-40, 1 mM DTT, 10 mg/mL BSA; immunoblotting
Conditions: both partners purified

B1: GST-RNF126, recombinant (enzyme, human, UniProt Q9BV68 1-311, looked up)
chain: MAEASPHPGRYFCHCCSVEIVPRLPDYICPRCESGFIEELPEETRSTENGSAPSTAPTDQSRPPLEHVDQHLFTLPQGYGQFAFGIFDDSFEIPTFPPGAQADDGRDPESRRERDHPSRHRYGARQPRARLTTRRATGRHEGVPTLEGIIQQLVNGIITPATIPSLGPWGVLHSNPMDYAWGANGLDAIITQLLNQFENTGPPPADKEKIQALPTVPVTEEHVGSGLECPVCKDDYALGERVRQLPCNHLFHDGCIVPWLEQHDSCPVCRKSLTGQNTATNPPGLTGVSFSSSSSSSSSSSPSNENATSNS
notes: RNF126, E3 ubiquitin ligase, cDNA amplified from HEK293T cells (full-length or truncated cDNA was cloned; this construct is named without limits); also called recombinant RNF126; source: E. coli BL21 (DE3), purified (glutathione-Sepharose 4B); not shown: GST, N-terminal, kept
- binding result: binds
